The term Ki denotes a measure of affinity in units of concentration, obtained from inhibition or displacement.

Chains of the proteins cited; added tags and fusions are not shown. Lines headed by an entry give the natural chain unless they say otherwise; changes in a name come on top.
UniProt Q99572: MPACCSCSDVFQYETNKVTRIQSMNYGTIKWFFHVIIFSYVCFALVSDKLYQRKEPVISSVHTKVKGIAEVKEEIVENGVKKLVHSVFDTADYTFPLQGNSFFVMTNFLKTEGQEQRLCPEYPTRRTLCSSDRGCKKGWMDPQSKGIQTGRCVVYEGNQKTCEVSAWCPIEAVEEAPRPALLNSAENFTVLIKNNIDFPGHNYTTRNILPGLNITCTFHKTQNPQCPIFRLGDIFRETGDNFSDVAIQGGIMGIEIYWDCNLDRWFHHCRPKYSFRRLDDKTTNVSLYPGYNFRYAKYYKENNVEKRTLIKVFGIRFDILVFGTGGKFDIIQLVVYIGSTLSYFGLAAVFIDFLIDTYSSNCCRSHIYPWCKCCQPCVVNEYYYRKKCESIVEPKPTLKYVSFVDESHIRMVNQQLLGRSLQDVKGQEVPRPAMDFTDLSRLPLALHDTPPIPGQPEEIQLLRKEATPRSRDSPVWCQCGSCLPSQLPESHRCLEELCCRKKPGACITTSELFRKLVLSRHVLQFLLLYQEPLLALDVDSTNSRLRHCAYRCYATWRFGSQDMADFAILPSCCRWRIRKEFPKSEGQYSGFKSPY

The target in the assay is P2X purinoceptor 7 (Homo sapiens, UniProt Q99572). The experiment in a line: P2X7 Radioligand Binding: human or rat P2X7-1321N1 cells were collected and frozen @−80° C. On the day of the experiment, cell membrane preparations were made according to standard published methods. The total assay volume was 100 μl:10 μl compound (10×)+(b) 40 μl tracer (2.5×)+50 μl membrane (2×). The tracer used for the assay was tritiated A-804598. The compound can be prepared as described in the literature. (Donnelly-Roberts, D. Neuropharmacology 2008, 56 (1), 223-229.) Compounds, tracer and membranes were incubated for 1 hour @ 4° C. The assay was terminated by filtration (GF/B filters pre-soaked with 0.3% PEI) and washed with washing buffer (Tris-HCl 50 mM). The IC50 generated in the binding assay was corrected for tracer concentration and affinity of the tracer to derive at the affinity (K) of the test compounds. […] Data are analyzed and graphed on Graphpad Prism 5.

On to `Cc1ncccc1C(=O)NN`, for which affinity was put at a Ki of 4 nM.

Values taken from ChEMBL document CHEMBL5725482, “Substituted [1,2,4]triazolo[4,3-a]pyrazines as P2X7 modulators” (2018).
